For assay [1], the target named is T1, Arachidonate 5-lipoxygenase-activating protein (Homo sapiens, UniProt P20292). Kind of assay: Inhibition of FLAP in human whole blood assessed as inhibition of calcium ionophore A23187-induced LTB4 production preincubated for 5 hrs by ELISA. (In general: In an ELISA, binding on a coated surface is turned into a signal by an enzyme label.)
For assay [2], the target named is T1, Arachidonate 5-lipoxygenase-activating protein. Description: Inhibition of FLAP in human whole blood assessed as inhibition of calcium ionophore A23187-induced LTB4 production preincubated for 15 mins by ELISA.
For assay [3] the target is unchanged. Kind of assay: Displacement of [3H]-3-[5-(pyrid-2-ylmethoxy)-3-tert-butylthio-1-benzylindol-2-yl]-2,2-dimethylpropionic acid from FLAP in human polymorphonuclear cell membranes after 1 hr by scintillation counting.
The target is the same in assay [4]. Kind of assay: Inhibition of FLAP in human peripheral leukocytes assessed as inhibition of calcium ionophore A23187-induced LTB4 production after 10 mins by ELISA. It is filed as cell-based.

Chains of the proteins cited; added tags and fusions are not shown. Lines headed by an entry give the natural chain unless they say otherwise; changes in a name come on top.
UniProt P20292: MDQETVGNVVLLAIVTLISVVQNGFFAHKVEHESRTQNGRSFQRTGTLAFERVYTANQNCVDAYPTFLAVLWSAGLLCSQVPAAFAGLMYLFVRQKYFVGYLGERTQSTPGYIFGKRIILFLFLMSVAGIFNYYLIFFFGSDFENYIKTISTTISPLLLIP

What is called IC50 is the midpoint of a concentration-inhibition curve.

Turning to `Cc1ccc(COc2ccc3c(c2)c(SC(C)(C)C)c(CC(C)(C)C(=O)O)n3Cc2ccc(-c3ccc(F)cn3)cc2)nc1`, the IC50 was 75 nM in assay [1], 194 nM in assay [2], 1.5 nM in assay [3] and 0.4 nM in assay [4].

(Values after ChEMBL document CHEMBL1921749, “5-Lipoxygenase-activating protein (FLAP) inhibitors. Part 4: development of 3-[3-tert-butylsulfanyl-1-[4-(6-ethoxypyridin-3-yl)benzyl]-5-(5-methylpyridin-2-ylmethoxy)-1H-indol-2-yl]-2,2-dimethylpropionic acid (AM803), a potent, oral, once daily FLAP inhibitor” (J Med Chem, 2011).)
